Experimental data from patent US6156789A, “Method for treating abnormal cell proliferation in the brain” (Rhone-Poulenc Rorer S.A., priority 1998, dated 2000).

Test system: mdr 1
Assay: Recognition by mdr 1 / multi-drug resistance properties

## CC(=O)O[C@H]1C(=O)[C@]23C[C@H]2C[C@H]2OC[C@@]2(OC(C)=O)[C@H]3[C@H](OC(=O)c2ccccc2)[C@]2(O)C[C@H](OC(=O)[C@H](O)[C@@H](NC(=O)c3ccccc3)c3ccccc3)C(C)=C1C2(C)C
  multi-drug resistance properties compared with Taxol and Taxotere: better multi-drug resistance properties than Taxol® and Taxotere®
